Experimental data published in patent US9603953B2, “Dendrimer compositions, methods of synthesis, and uses thereof” (priority 2014, dated 2017).
Where two headings read alike, the source gives them in different places.

Assays:
[1] = system: Wistar rats; assay: Acute toxicity test after intravenous and intraperitoneal administration in the rat (Example 5); type: in vivo; settings: single dose 63,4316 picomole/kg (33.17 mCi/kg = 1226 MBq/kg), male Wistar rats, observed 1 hour, 8 times human equivalent dose
[2] = system: Wistar rats; settings: single in situ intrahepatic dose 5.72 mCi/kg (209.969 MBq/kg), rat, observed 1 hour; 1,3 times human equivalent dose

Dendrimer G5 {1-nitro-1H-Imidazole-methyl-1,2,3-triazol-methyl-di-(2-pycolyl)amine}
mortality [1]: 0%
mortality [2]: 0%
